In the experiment the target is PI3 K P110α (Homo sapiens, UniProt P42336). Description: Inhibition of PI3K (P110α). In kind it is biochemical. As to conditions: values printed without % sign, read as IC50, read-out: PI3 K (% at 25 μM, or IC50), P110α.

By UniProt entry, the sequences of proteins in these tests, tags left out.
UniProt P42336, whole entry: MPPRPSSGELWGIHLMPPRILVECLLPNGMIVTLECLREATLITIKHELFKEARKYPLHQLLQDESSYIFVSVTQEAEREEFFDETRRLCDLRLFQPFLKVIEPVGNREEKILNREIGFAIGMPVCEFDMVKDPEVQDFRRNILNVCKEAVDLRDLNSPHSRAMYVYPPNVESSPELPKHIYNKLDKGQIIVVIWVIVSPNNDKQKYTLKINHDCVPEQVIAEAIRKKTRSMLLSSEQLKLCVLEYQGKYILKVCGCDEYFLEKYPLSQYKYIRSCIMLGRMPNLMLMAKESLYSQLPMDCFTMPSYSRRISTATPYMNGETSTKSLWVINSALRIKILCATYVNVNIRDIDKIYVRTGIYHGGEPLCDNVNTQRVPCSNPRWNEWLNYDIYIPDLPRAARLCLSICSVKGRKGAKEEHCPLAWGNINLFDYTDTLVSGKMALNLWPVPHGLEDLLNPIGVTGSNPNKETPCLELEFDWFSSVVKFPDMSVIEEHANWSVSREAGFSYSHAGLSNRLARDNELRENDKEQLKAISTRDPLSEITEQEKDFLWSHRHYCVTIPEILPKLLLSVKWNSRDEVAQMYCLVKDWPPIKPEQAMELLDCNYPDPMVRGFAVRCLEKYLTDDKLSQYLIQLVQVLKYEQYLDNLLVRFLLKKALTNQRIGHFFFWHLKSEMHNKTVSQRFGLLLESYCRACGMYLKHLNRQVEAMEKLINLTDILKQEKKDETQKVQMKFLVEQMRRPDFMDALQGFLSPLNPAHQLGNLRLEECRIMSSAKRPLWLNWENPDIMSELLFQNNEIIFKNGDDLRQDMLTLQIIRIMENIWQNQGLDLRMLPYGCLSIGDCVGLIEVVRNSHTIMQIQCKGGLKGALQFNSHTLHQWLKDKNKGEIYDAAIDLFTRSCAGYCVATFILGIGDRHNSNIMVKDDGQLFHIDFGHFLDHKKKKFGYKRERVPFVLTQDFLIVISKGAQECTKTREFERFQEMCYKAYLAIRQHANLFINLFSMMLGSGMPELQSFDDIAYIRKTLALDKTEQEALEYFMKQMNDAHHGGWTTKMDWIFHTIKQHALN

Turning to `C(#Cc1n[nH]c2ccccc12)c1cccnc1`, the IC50 came to 0.075 µM.

Values taken from US7951832B2, “Pyrazole derivatives as kinase inhibitors” (Burnham Institute for Medical Research, priority 2007, dated 2011).
